Source: patent US20140086881A1, “GOOD HEALTHY CELLS FOUND IN PROTEINS, THEIR APPLICATIONS, AND PROCESS OF MAKING A MEDIUM TO HARVEST THE CELLS” (priority 2012, published 2014)

Legend:
1a replicon cells (Huh7) = settings: at 320 Um
1b replicon cells = settings: at 320 uM
2a replicon cells (Huh7) = settings: at 320 uM

NC(=O)c1ncn([C@@H]2O[C@H](CO)[C@@H](O)[C@H]2O)n1 [Ribavirin] was tested, and the “cytotoxicity % inh (CC50 column) 1a” value (1a replicon cells (Huh7)) was 47.4% inh at, the “cytotoxicity % inh (CC50 column) 1b” value (1b replicon cells) was 61.8% inh at and the “cytotoxicity % inh (CC50 column) 2a” value (2a replicon cells (Huh7)) was 44.8% inh at.
